Measurements reported in paper PMC2760454 (Biochemistry, 2008).

Chains of the proteins cited; added tags and fusions are not shown. Residues count along the entry.
UniProt P40495, 23-371: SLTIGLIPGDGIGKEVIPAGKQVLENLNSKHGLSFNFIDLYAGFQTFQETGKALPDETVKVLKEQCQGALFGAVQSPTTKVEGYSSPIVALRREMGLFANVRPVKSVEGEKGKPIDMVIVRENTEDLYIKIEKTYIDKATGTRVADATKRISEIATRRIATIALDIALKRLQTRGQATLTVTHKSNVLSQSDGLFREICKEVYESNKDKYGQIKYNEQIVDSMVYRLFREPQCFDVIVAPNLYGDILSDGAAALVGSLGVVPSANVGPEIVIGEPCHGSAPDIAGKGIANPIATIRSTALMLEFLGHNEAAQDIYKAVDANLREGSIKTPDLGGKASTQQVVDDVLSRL

Legend:
[1] = target: T1, homoisocitrate dehydrogenase (HIcDH) (Saccharomyces cerevisiae, UniProt P40495); details: as slow substrate, in the presence of K+; cited from earlier work
[2] = target: T1, homoisocitrate dehydrogenase (HIcDH); test: HIcDH initial velocity studies; assay type: biochemical; details: in the absence of K+

O=C(O)CC(C(=O)O)C(O)C(=O)O (centres unmarked) [isocitrate]
rate, fold lower than the rate with HIc [1]: 200 fold
reaction rate as reactant [2]: not detectable
